Source: publication PMC3553014, “Albumin Stimulates the Activity of the Human UDP-Glucuronosyltransferases 1A7, 1A8, 1A10, 2A1 and 2B15, but the Effects Are Enzyme and Substrate Dependent” (PLoS ONE, 2013)

Experiments:
[1] = test system: 17α-estradiol (17-epiestradiol); assay: purified protein, by the assay type; conditions: pH 7.4
17β-estradiol = assay: purified protein, by the assay type; conditions: pH 7.4
UGT2B15 = target: T1, UGT2B15 (Homo sapiens, UniProt P54855); conditions: No BSA; 17α-estradiol: 3-glucuronide formation
T1 sequence (P54855 24-530): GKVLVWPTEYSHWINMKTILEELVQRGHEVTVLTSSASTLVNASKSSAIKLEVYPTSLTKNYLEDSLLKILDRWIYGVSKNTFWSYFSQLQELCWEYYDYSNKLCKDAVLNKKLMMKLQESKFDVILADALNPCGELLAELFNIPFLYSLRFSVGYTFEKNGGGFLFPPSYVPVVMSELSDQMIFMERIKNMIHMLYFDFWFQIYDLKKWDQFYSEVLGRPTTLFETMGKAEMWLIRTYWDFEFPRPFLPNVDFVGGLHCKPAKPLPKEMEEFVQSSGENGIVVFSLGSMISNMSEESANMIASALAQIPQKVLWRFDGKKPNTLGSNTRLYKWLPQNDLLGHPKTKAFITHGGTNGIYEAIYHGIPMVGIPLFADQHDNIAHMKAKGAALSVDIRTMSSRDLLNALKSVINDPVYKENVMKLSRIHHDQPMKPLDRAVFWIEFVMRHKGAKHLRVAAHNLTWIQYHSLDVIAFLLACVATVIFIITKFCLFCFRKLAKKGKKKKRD

## UGT2B4 (Homo sapiens)
[1]
  K0.5: 4.51±0.68(3.09–5.93) uM
  Vmax: 5.3e-05 µmol/min/mg

## UGT2B17 (Homo sapiens)
17β-estradiol
  K0.5: 6.01±0.26(5.47–6.54) uM
  Vmax: 1.3e-05 µmol/min/mg

## UGT1A1 (Homo sapiens)
[1]
  K0.5: 4.57±0.48(3.59–5.56) uM
  Vmax: 1.9e-05 µmol/min/mg

## UGT2B7 (Homo sapiens)
17β-estradiol
  K0.5: 2.56±0.29(1.96–3.16) uM
  Vmax: 6.7e-06 µmol/min/mg
[1]
  K0.5: 0.128±0.015(0.098–0.158) uM
  Vmax: 1.4e-05 µmol/min/mg

## UGT1A10 (Homo sapiens)
17β-estradiol
  K0.5: 4.58±0.61(3.30–5.85) uM
  Vmax: 0.0025 µmol/min/mg
[1]
  K0.5: 25.7±6.3(12.8–39.1) uM
  Vmax: 7e-05 µmol/min/mg

## UGT1A8 (Homo sapiens)
17β-estradiol
  K0.5: 8.16±0.55(7.03–9.30) uM
  Vmax: 2e-05 µmol/min/mg

## C[C@]12CC[C@@H]3c4ccc(O)cc4CC[C@H]3[C@@H]1CC[C@H]2O [17α-Estradiol, 17α-estradiol]
UGT2B15
  K m or S 50 ± S.E.: 10.2±1.0(8.0–12.3) µM
